{"source": "patent EP1685248B1", "about": "“OXIDOREDUCTASE FROM METSCHNIKOWIA ZOBELLII” (IEP GmbH, priority 2003, dated 2005)", "test_system": "Oxidoreduktase aus Metschnikowia zobellii", "experiment": "Substrate spectrum (relative enzyme activity, standard assay of Example 5.1)", "assay_type": "biochemical", "conditions": "activity with 2-Oxo-4-phenyl-buttersäureethylester set to 100%; NADPH; 25 °C", "data": [{"smiles": "CCOC(=O)C(=O)CBr", "values": [{"measurement": "Relative Aktivität %", "value": 28, "unit": "%"}]}]}
